Values of other authors in patent US20260053141A1, “AGROCHEMICAL FORMULATION” (priority 2022, published 2026).

Conditions: temperature not given

## butyl acetate and isomers
  water solubility: 0.6-0.8 % w/w
